Experimental data from patent US20130345164A1, “TREATMENTS FOR CELLULAR PROLIFERATIVE DISORDERS AND IDENTIFICATION THEREOF” (UNIVERSITY OF MEDICINE AND DENTISTRY OF NEW JERSEY, priority 2010, published 2013).

Tests used:
[1] = test system: tumor cell lines with endogenous R175H mutations; assay: Sensitivity across human tumor cell lines with different p53 hot spot mutations; type: cell-based
Experimental: Next, assays were carried out to examine the sensitivity to NSC319726 of a human tumor cell line system that was made up of 4 cell lines expressing wild type p53, one cell line expressing p53 null cell in (SKOV3), and one ovarian carcinoma cell line containing a p53^R175H (TOV112D). […] Five tumor cell lines with endogenous […] mutations were compared, including two cell lines containing R248W mutations and three cell lines with a R273H mutation.

[2] = test system: TOV112D-p53R175H, OVCAR3-p53 R248W and SKOV3-p53 null; assay: Apoptosis by Annexin V staining in ovarian carcinoma cell lines; type: cell-based, human; details: TOV112D vs OVCAR3 and SKOV3
Text: Briefly, apoptosis was examined by Annexin V staining using standard methods.

[3] = Toxicity assays in p53 wild type, p53 null and p53^R172H mice; type: in vivo; details: 10 mg/kg intraperitoneally daily
Experimental: Toxicity assays were performed in p53 wild type, p53 null, and p53^R172H mice to determine if in vivo p53 mutant synthetic lethality could be detected. It was hypothesized that p53^R172H mice would experience greater toxicity for a given dose of NSC319726 as compared to the p53 wild type or null mice.
First, three groups of mice: […], p53^+/R172H/R172H mice, were compared. NSC319726 was injected intraperitoneally at 10 mg/kg daily for seven days.
Next, the dose was lowered to 5 mg/kg and three groups of mice (p53 wild type, p53 null, and p53^R172H/R172H) were compared.

[4] = test system: H460-p53 wildtype, MDAMB468-p53^R273H, HCT116-p53 null and TOV112D-p53^R175H xenograft tumors; assay: Mouse xenograft tumor growth; type: in vivo; details: 0.1 μg/g vs 1 μg/g
Experimental: Xenograft tumors were created by subcutaneous flank injections of 8×10^6 human tumor cells and allowed to grow to an initial size ranging from 50-200 mm^3 prior to initiation of NSC319726 (1 μg/g) (versus control, “ctl”) administered intravenously once daily.

Question: With `C/C(=N\NC(=S)N1CCC1)c1ccccn1` [NSC319726] as the compound, how does the “sensitivity fold higher than other p53 mutant alleles” value ([1]; R175H lines (except RXF393) vs R248W and R273H lines) read?
Answer: The value was “approximately 10 fold”.

Question: What about the “sensitivity fold higher than other p53 mutant alleles, in some instances” value ([1]; R175H lines vs R248W and R273H lines, some instances) of the same compound?
Answer: The value was about 100 fold.

Question: And the “Annexin V staining in TOV112D relative to the other two ovarian cell lines” value [2]?
Answer: The value was about 3 fold.

Question: And the “mice died by day 3” value [3]?
Answer: Its value is “all seven”.

Question: What about the “xenograft growth inhibition at 10-fold lower dose” value [4] of the same compound?
Answer: Its value is “no difference in growth inhibition”.
